Data: patent US20250188443A1, “METHOD FOR CULTIVATING CYANOBACTERIA” (published 2025)

System: cyanobacteria (Synechococcus elongatus PCC7942)
Assay: NTG chemical mutagenesis, fatality rate of the strain

In the case of CN(N=O)C(=N)N[N+](=O)[O-], the “fatality rate of the strain” value (50 μg/ml to 100 μg/ml of the NTG, 0.5 minutes to 1.5 minutes) is reported as “approximately 50%” and the fatality rate (secondary NTG mutagenesis, 100 μg/ml of the NTG for 1 minute) is reported as “approximately 50%”.
